These are literature values, as cited in patent US12465609B2, “Methods of treating patients suffering from a disease condition or disorder that is associated with an increased glutamate level” (veriNOS operations GmbH, priority 2022, dated 2025).

SMILES strings stand for the structures.

For this data set, the system named is human platelets. As to conditions: cited from earlier work.

With `CN[C@H]1CC[C@@H](c2ccc(Cl)c(Cl)c2)c2ccccc21` [Sertraline], the platelet glutamate uptake result is given as “dose dependently reduces”.
